# OPERA 2.9 data: melting point values

Data: OPERA 2.9 data sets, kmansouri/OPERA on GitHub.

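These are experimental values that the OPERA curators gathered from public databases to train and test their QSAR models. One number stands for a compound and property, with no spread given. Method, purity and exact conditions of the single measurements are not given. A value may pool stereoisomers or salt forms, and the file does not say which form was measured. Some upstream entries may be estimates or bounds without being marked so.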

Melting points are in °C.
The databases behind each value are named after "via".

SMILES | MP (°C) | via
N=C(CCN1CCCCC1)NO | 138 | OCHEM
Cc1ccc2nc(CCl)cc(=O)n2c1 | 137 | OCHEM
O=C(O)COc1ccc2c(c1)CCC2 | 155 | OCHEM
Nc1cccc(S(=O)(=O)Nc2cccc(Cl)c2)c1 | 108 | OCHEM
O=C(CCc1ccc(O)cc1)Nc1ccccc1C(=O)O | 189.5 | eChemPortal
Cc1nccn1-c1ccc(C(F)(F)F)cc1N | 184 | OCHEM
Cc1cc(=O)nc(NN)[nH]1 | 214 | OCHEM
CCCCCCCCCCCC1=NC(C)(C)CO1 | -25.69 | eChemPortal
CC(=O)CC(=O)Nc1ccc(NC(=O)CC(C)=O)cc1 | 178 | eChemPortal
CCOC(=O)c1c(C)noc1N | 134 | OCHEM
CO[Si](CC(C)C)(OC)C(C)C | -78 | eChemPortal
CC(Cl)C(=O)NC(c1ccccc1)c1ccccc1 (stereo not given) | 134 | OCHEM
COc1cc(Br)c(S(=O)(=O)Cl)cc1OC | 93 | OCHEM
C=C(C)C(=O)OC(O)CCC (stereo not given) | -19.65 | eChemPortal
COC(=O)c1sc(N)c(C#N)c1C | 226 | eChemPortal
c1ccc(-c2cn[nH]c2)cc1 | 230 | OCHEM
COc1c(OC)c(OC(C)=O)c2cc(Br)ccc2c1OC(C)=O | 102 | OCHEM
O=c1[nH]cnc2scc(-c3ccc(F)cc3)c12 | 232 | OCHEM
COc1ccc([N+](=O)[O-])cc1CCl | 79 | OCHEM
Nc1nc2ccccc2n2nnnc12 | 290 | OCHEM
CN1CC(=O)NC(=O)C1 | 100 | OCHEM
CC[N+]1=C(c2ccc3c(c2)C(C)CC(C)(C)N3CCO)c2cccc3cccc1c23.[Cl-] (stereo not given) | 120 | eChemPortal
CCCCOCCOC(=O)COc1nc(Cl)c(Cl)cc1Cl | 150 | OCHEM
Cn1cc(S(=O)(=O)Cl)c(=O)n(C)c1=O | 208 | OCHEM
CCCCOc1ccc(C=O)cc1OCC | 39 | OCHEM
CCNc1ccc(C(=O)O)cc1[N+](=O)[O-] | 240 | OCHEM
COc1c(OC)c(OC(C)=O)c2c(Cl)cccc2c1OC(C)=O | 134 | OCHEM
NC(=O)CNc1ccccc1 | 140 | OCHEM
CCCCCCC1=CCCC1=O | -22 | eChemPortal
NS(=O)(=O)c1cccc(NC(=O)CCl)c1 | 166 | OCHEM
C=CC(F)(F)C(F)(F)C(F)(F)C(F)(F)C(F)(F)C(F)(F)C=C | -34.85 | eChemPortal
Cc1cccc(NC2=NC(=O)CS2)c1 | 161 | OCHEM
O=S(=O)([O-])CCCSc1nc2ccccc2s1.[Na+] | 320 | eChemPortal
O=C(O)CN1C(=O)c2ccccc2S1(=O)=O | 219 | OCHEM
NNc1cc(Cl)ncn1 | 152 | OCHEM
CCCCCCOC(=O)/N=C(/N)c1ccc(NCc2nc3cc(C(=O)N(CCC(=O)OCC)c4ccccn4)ccc3n2C)cc1 | 180 | PubChem
Cc1nsc(N)c1C(=O)O | 159 | OCHEM
Clc1ccc(Oc2ccc(Cl)c(Cl)c2Cl)c(Cl)c1 | 66 | QSARDB
NCc1ccn[nH]1 | 59 | OCHEM
CC(C)C1CCC(O)CC1 (stereo not given) | 50 | eChemPortal
Cc1ccc(N2C(=O)Cc3ccccc3C2=O)cc1 | 174 | OCHEM
Cc1cc(N)n(C2CCS(=O)(=O)C2)n1 (stereo not given) | 216 | OCHEM
O=C(O)C(=Cc1cccs1)n1nnnc1-c1ccccc1 | 205 | OCHEM
Cn1c(=O)c2c(=O)cc(N)[nH]c2n(C)c1=O | 317 | OCHEM
COc1ccccc1C(=O)N(NC(=O)c1ccccc1)C(C)(C)C | 182 | OCHEM

5 of these entries, quoted again:

SMILES | MP (°C) | via
COc1cc(Br)c(S(=O)(=O)Cl)cc1OC | 93 | OCHEM
CCCCOc1ccc(C=O)cc1OCC | 39 | OCHEM
COC(=O)c1sc(N)c(C#N)c1C | 226 | eChemPortal
Cc1cc(N)n(C2CCS(=O)(=O)C2)n1 (stereo not given) | 216 | OCHEM
CCCCCCOC(=O)/N=C(/N)c1ccc(NCc2nc3cc(C(=O)N(CCC(=O)OCC)c4ccccn4)ccc3n2C)cc1 | 180 | PubChem